These are literature values, as cited in publication PMC6682141.

Protein sequences, listed by entry. Tags and fused reporters are not part of them.
UniProt P61073, whole entry: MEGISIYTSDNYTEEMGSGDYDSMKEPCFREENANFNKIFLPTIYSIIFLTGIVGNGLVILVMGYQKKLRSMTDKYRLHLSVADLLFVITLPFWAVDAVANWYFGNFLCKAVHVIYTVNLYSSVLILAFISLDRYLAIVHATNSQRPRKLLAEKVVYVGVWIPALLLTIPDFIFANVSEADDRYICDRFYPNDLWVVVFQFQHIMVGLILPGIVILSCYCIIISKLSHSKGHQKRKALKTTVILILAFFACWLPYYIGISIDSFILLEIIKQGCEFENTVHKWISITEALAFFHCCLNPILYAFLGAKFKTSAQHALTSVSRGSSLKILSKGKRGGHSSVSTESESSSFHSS

This data set has as its target CXCR4 (Homo sapiens) (UniProt P61073).

The term Kd denotes a measure of binding affinity in units of concentration. Turning to ubiquitin (from UniProt P0CG47), the Kd was 0.156 µM.
